The species named for assay [1] is Homo sapiens. Description: Selectivity ratio of IC50 for full length human […]/human N-terminal GST-tagged CyclinE1 (1 to 410 residues) expressed in baculovirus expression system to IC50 for recombinant human full length Cdc7 (1 to 574 residues)/human N-terminal GST-tagged ASK (1 to 674 residues) expressed in baculovirus expression system.
The species entered for assay [2] is Homo sapiens. As to the kind of experiment: Selectivity ratio of IC50 for recombinant human N-terminal GST-tagged ROCK1 catalytic domain (1 to 477 residues) expressed in baculovirus expression system to IC50 for recombinant human full length Cdc7 (1 to 574 residues)/human N-terminal GST-tagged ASK (1 to 674 residues) expressed in baculovirus expression system.

For `O=c1[nH]c(CN2CCCC2)nc2cc(-c3ccncc3)sc12`, the Ratio IC50 in the assay listed under Homo sapiens [1] stood at 830; in the assay listed under Homo sapiens [2], 15.
As for `O=c1[nH]c(CN2CCCC2)nc2cc(-c3cn[nH]c3)sc12`, the Ratio IC50 came out at 2200 in the assay filed under Homo sapiens [1] and 180 in the assay filed under Homo sapiens [2].
The like results for `Cc1n[nH]cc1-c1cc2nc(CN3CCCC3)[nH]c(=O)c2s1` were, in that order, 14000 and 200.
